Measured values as given in US20170224654A1, “PHARMACEUTICAL COMPOSITIONS AND METHODS FOR COUNTERING CHEMOTHERAPY INDUCED CARDIOTOXICITY” (Stem Cell Theranostics, Inc., priority 2016, published 2017).

Tested on: Human iPSC-derived cardiomyocytes
Test: DOX-induced DNA double strand break (γH2AX immunostaining)
Assay type: cell-based

`C[C@@H](CN1CC(=O)NC(=O)C1)N1CC(=O)NC(=O)C1` [dexrazoxane] was tested, and the “protection against DOX-induced DNA double strand break (γH2AX-positive cells)” value was “little or no protection”.
